Test results as given in patent publication US20210236664A1, “ALPHA PARTICLE FORMULATIONS FOR TREATMENT OF SOLID TUMORS” (The Johns Hopkins University, priority 2018, published 2021).

Excerpt: Partition coefficients will be as previously described with some minor modifications. Decristoforo, C., et al., 2008. Octanol and saline (pH=7.4) will be used to assess the […] of the proposed compounds. Briefly, the radiolabeled ^111In- and ^225Ac-labeled DOTA(GA)-alkyl chelates will be vortexed with octanol and saline then centrifuged to separate layers. Aliquots (3) from each layer will be removed and counted. The […] will be determined using the following equations:
Poct/saline=Log([activity]octanol/[activity]saline).
A greater than 95% purity was obtained following purification with a Seppak.

^111In-DOTA-octadecylamine [^111In-DOTA-ODA]
Log Poct: 1.78±0.02
